This is an account of results in ChEMBL document CHEMBL4673259, “Discovery of isoquinolinone and naphthyridinone-based inhibitors of poly(ADP-ribose) polymerase-1 (PARP1) as anticancer agents: Structure activity relationship and preclinical characterization” (Bioorg Med Chem, 2020).

For this test, the species on record is Homo sapiens. Put plainly: Selectivity index, ratio of IC50 for inhibition of N-terminal GST-tagged human PARP2 (2 to 583 residues) expressed in baculovirus infected Sf9 cells to IC50 for inhibition of N-terminal GST-tagged human full length PARP1 (2 to 1041 residues) expressed in baculovirus infected Sf9 cells.

Consider `N#Cc1ccc(N2CCN([C@H]3C=C(c4cc5ncccc5c(=O)[nH]4)CC3)CC2)cc1`, for which the Ratio IC50 came to 7.4.
